Literature values in patent publication US12186286B2, “Use of senicapoc for treatment of stroke” (Paracelsus Neuroscience II, LLC, priority 2019, dated 2025).

Target: human KCa3.1 (Homo sapiens, UniProt O15554)
Details: cited from earlier work

Structure (SMILES): NC(=O)C(c1ccccc1)(c1ccc(F)cc1)c1ccc(F)cc1 [Senicapoc, senicapoc]
- IC50: 11 nM
